Target: T1, Tel-TrkB (Homo sapiens, UniProt Q16620)
T1 construct: dimerization domain of Tel (ETV6) transcription factor (fusion partner, human ETV6 P41212); expressed in transfected cells; host or cells: luciferase expressing Ba/F3 murine hematopoietic progenitor cells; the other entry of the earlier key: ETV6 (P41212, Transcription factor ETV6)
Assay: Inhibition of proliferation of Ba/F3 cells expressing Tel-TrkB (BaF3/Tel-TrkB)
Format: cell-based
Conditions: read-out: Ba/F3 Tel-TrkB IC 50
Experimental: Test compounds were dissolved in DMSO (10 mM) and transferred into 1.4 mL flat bottom or V-shaped Matrix tubes carrying a unique 2D matrix chip by individual compound hubs. The numbers of these chips were distinctively linked to the individual compound identification numbers. The stock solutions were stored at −20° C. if not used immediately. For the test procedure the vials were defrosted and identified by a scanner whereby a working sheet is generated that guides the subsequent working steps.
Compound dilutions were made in 384 well plates. This format enabled the assay of maximally 28 individual test compounds at 12 concentrations (single points) including 2 reference compounds. […]
Compounds of Formula (I) were tested for their antiproliferative effect on Ba/F3 cells expressing either Tel-TrkA, Tel-TrkB or Tel-TrkC and an additional panel of 34 selected diverse kinases activated by fusion to the dimerizing partners Bcr or Tel (Abl, A1K, BMX, EphA3, EphB2, FGFR2, FGFR3, FGFR4, FGR, FLT1, FLT3, FLT4, FMS, IGF1R, InsR, JAK1, JAK2, JAK3, KDR, Kit, Lck, Lyn, MER, MET, PDGFRb, RET, RON, Ros-1, Src, Aurora, TIE2, TYK2, Tie1, ZAP70). […] The IC50 values of the compounds the different cell lines were determined from dose response curves. […]

Amino acid sequences for entries named in this document (tags omitted). Residues count along the entry.
UniProt Q16620, 538-822 limits assumed: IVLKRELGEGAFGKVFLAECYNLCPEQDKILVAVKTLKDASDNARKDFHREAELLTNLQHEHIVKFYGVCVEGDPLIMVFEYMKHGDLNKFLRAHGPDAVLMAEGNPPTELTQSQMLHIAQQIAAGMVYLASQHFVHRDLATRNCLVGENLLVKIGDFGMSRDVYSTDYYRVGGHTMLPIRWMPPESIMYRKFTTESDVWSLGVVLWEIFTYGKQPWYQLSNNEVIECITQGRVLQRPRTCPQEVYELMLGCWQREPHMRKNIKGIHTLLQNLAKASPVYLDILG

Work on `N#Cc1ccc(-c2cnc3ccc(N4CCOCC4c4cccc(F)c4)nn23)cc1` (stereo not shown) [Table 2-Compound 1] yielded an IC50 of 5.5 nM.

From patent US8507488B2, “Fused nitrogen containing heterocycles and compositions thereof as kinase inhibitors” (IRM LLC, priority 2008, dated 2013)
